This note sets out measurements from patent US12234237B2, “Folate salts” (priority 2018, dated 2025).

A short description of the series: Solubility of the folate salt in organic (apolar) solvents at 20° C. The protocol: Solubility has been determined at 20° C. Apolar solvents or mixtures thereof are for instance glycerol, methanol, ethanol, 1-propanol, 2-propanol and dimethylsulfoxid (DMSO). Apolar solvents are understood as dry solvents, that is without any water content. Apolar solvents may be pure solvents, comprising only one type of apolar solvent or it may be a mixture of at least two of the aforementioned apolar solvents. Polarity is in comparison to the polarity of water.
A high degree of crystallinity means that the crystalline content of the folate salt is higher than 40% based on the total amount of the folate salt.

As for “5-Methyl-(6S)-tetrahydrofolic acid di Choline salt [L-MTHF di Choline]”, the “Solubility in 1-Propanol” value (1-propanol, 20° C., based on total weight of the solution) is given as 0.2% w/w. Besides, under “DMSO, 20° C., based on total weight of the solution”, the “Solubility in DMSO” value is listed as 31.3% w/w. Further, the “Solubility in mixtures of organic solvents, highly crystalline salt” value (ethanol with 5 weight-% methanol or glycerol, highly crystalline salt, based on total weight of the solution) is given as “up to 25 weight-%”. For the same substance, the “Solubility in Ethanol” value (ethanol, 20° C., based on total weight of the solution) came to 0.3% w/w. In addition, the “Solubility in ethanol, highly crystalline salt” value (ethanol, high crystalline content, based on total weight of the solution) came out at 0.3 weight-%. In addition, the “Solubility in ethanol, high amorphous content” value (ethanol, salt at a high amorphous content) is listed as 38.8 weight-%. Also, the “Solubility in Glycerol” value (glycerol, 20° C., based on total weight of the solution) turned out to be 24.1% w/w. In addition, the “Solubility in Methanol” value (methanol, 20° C., based on total weight of the solution) is listed as 38.7% w/w.
